Apparent affinities of Ab-14 variants for a coronavirus HR2 peptide

Target peptide (SARS-CoV-2 spike, HR2 region): PDVDLGDISGINAS

Parent: Ab-14, a human scFv built as VH, three GGGGS repeats, VL. Only the CDRs of the light chain vary.
VH: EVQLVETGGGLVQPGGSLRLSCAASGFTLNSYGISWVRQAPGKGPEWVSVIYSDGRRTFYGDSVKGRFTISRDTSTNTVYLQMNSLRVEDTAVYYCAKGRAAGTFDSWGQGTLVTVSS
VL: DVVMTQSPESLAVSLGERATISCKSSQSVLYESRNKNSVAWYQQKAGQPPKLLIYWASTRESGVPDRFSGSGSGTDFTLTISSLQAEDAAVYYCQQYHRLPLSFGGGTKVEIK

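The starting antibody came from a phage panning campaign against this peptide. These sequences belong to a second round, designed from the earlier measurements on random variants of the parent. Their group label is 14L_GP_Gibbs (GP: Gaussian process model; Gibbs: Gibbs sampling; a sequence that several methods proposed may carry one label only). The assay is AlphaSeq: two haploid yeast populations carry antibody and antigen on their surface. Pairs that bind mate more often; barcode pairs of the diploids are counted by sequencing. Each replicate has its own calibration line, from reference interactions of the BCL2 family. Each pool was mated in six replicate cultures.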

Each variant's VL is given in full.
The read-out is the apparent dissociation constant on a log10 scale (nM): the lower, the stronger.
A mean of the replicates is given; it leaves out those without a signal.
A sequence measured in both rounds can read differently, since the two assays cover different ranges.
The parent sequence was in this pool as ten entries: three were never detected, three once, and four in most replicates, with averages from 0.34 to 2.37.
The authors averaged sequences with at least three values out of six and counted those with two or fewer as poor binders.
Empty control strains, which show no peptide, gave a signal in 4% of pairings with all light chain designs; the median was 2.64 and 95% of these signals were weaker than 1.59. No background was subtracted. For each scFv, signals with the empty controls are counted beside the result, with their mean in brackets.

| VL | log10 Kd, replicates | mean, log10 nM | empty controls |
|---|---|---|---|
| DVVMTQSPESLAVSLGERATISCKSQQEWEGQSRNKNSVAWYQQKAGQPPKLLIYHASKRESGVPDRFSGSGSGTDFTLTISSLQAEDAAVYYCQQYHRLPLSFGGGTKVEIK | 1.10 / 0.52 / 0.70 / 0.29 / 0.31 / 0.59 | 0.59 | 0/18 |
| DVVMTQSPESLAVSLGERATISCKSYQSSWYESRNKNSVAWYQQKAGQPPKLLIYNASLRCSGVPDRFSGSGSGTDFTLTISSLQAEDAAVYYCQQYHRLPLSFGGGTKVEIK | 0.96 / 0.66 / 0.46 / 0.43 / 0.64 / 0.88 | 0.67 | 0/18 |
| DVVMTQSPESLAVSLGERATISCKFSGSWGMESRNKNSVAWYQQKAGQPPKLLIYNASHRMSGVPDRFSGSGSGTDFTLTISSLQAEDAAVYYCQQYHRLPLSFGGGTKVEIK | 0.95 / 0.58 / 0.65 / 0.70 / 0.64 / 1.05 | 0.76 | 0/18 |
| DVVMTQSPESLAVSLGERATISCKMSQSVPYEERNWNSVAWYQQKAGQPPKLLIYNASKRLSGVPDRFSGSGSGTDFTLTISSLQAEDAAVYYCQQYHRLPLSFGGGTKVEIK | 0.22 / 0.05 / -0.38 / 0.08 / 0.23 / -0.21 | 0.00 | 1/18 (4.28) |
| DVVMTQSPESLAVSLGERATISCKVQQMWLYGSRNKNSVAWYQQKAGQPPKLLIYDASQREEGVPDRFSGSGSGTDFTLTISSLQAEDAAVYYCQQYHRLPLSFGGGTKVEIK | -0.03 / -0.05 / 0.01 / -0.21 / -0.06 / -0.03 | -0.06 | 0/18 |
| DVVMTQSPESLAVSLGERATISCKLSQSWLGEWRNFNSVAWYQQKAGQPPKLLIYHASTREQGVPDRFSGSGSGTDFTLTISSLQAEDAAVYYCQDYHRLPLSFGGGTKVEIK | 0.60 / 0.81 / 0.45 / 0.31 / 0.23 / 0.54 | 0.49 | 1/18 (2.73) |
| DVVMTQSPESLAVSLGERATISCKLSQSVLGGSRNKNSVAWYQQKAGQPPKLLIYHASQRESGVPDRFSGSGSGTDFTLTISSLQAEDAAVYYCQQYHRLPLYFGGGTKVEIK | 0.73 / 0.51 / 0.61 / 0.38 / 0.51 / 0.35 | 0.52 | 0/18 |
| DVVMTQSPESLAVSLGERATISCKLEQSQLYESRNKNSVAWYQQKAGQPPKLLIYNASQRERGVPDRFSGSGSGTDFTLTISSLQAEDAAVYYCQQYHRLPLSFGGGTKVEIK | 0.13 / 0.20 / -0.04 / 0.03 / -0.24 / 0.02 | 0.02 | 0/18 |
| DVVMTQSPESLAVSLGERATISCKLSCSWLMESRNSNSVAWYQQKAGQPPKLLIYHASKRMSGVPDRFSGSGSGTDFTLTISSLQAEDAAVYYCQQYHRLPLSFGGGTKVEIK | 1.04 / 0.92 / 2.03 / 0.87 / 2.86 / 1.02 | 1.46 | 0/18 |
| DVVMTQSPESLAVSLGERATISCKSSQEDDYQSRNINSVAWYQQKAGQPPKLLIYDASLRESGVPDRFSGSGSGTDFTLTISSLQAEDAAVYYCQQYHRLPLSFGGGTKVEIK | 0.06 / -0.08 / -0.25 / -0.30 / -0.06 / 0.16 | -0.08 | 1/18 (2.57) |
| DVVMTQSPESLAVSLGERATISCKLSFSNGYEDRNKNSVAWYQQKAGQPPKLLIYSASQRLMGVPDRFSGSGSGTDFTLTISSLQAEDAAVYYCQQYHRLPLSFGGGTKVEIK | -0.08 / -0.24 / -0.30 / -0.37 / -0.37 / -0.51 | -0.31 | 1/18 (4.23) |
| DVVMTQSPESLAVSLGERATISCKLSWSWLLESRAKNSVAWYQQKAGQPPKLLIYNASLRESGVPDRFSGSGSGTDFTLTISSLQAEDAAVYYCQQYHRLPLSFGGGTKVEIK | 0.75 / 0.87 / 0.86 / 0.53 / 0.66 / 0.39 | 0.68 | 3/18 (2.76) |
| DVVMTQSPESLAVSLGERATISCKQSMSVMMGSRNKNSVAWYQQKAGQPPKLLIYSASKREAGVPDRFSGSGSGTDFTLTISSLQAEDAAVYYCQQYHRLPLSFGGGTKVEIK | 0.93 / 0.90 / 0.60 / 1.05 / 1.32 / 1.35 | 1.03 | 0/18 |
| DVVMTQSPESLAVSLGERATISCKQQFSSGMESRNKNSVAWYQQKAGQPPKLLIYSASTRCSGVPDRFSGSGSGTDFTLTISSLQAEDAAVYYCQQYHRLPLSFGGGTKVEIK | 0.46 / 0.44 / 0.31 / 0.65 / 0.56 / 0.70 | 0.52 | 3/18 (1.90) |
| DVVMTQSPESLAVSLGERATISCHLSQSVDYESRQKNSVAWYQQKAGQPPKLLIYNAQTRMSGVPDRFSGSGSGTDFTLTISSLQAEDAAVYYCQQYHRLPLSFGGGTKVEIK | 0.25 / 0.43 / 0.33 / 0.17 / 0.22 / 0.41 | 0.30 | 3/18 (2.65) |
| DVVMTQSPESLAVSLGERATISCKLQQSVEYEARNQNSVAWYQQKAGQPPKLLIYSASYRLDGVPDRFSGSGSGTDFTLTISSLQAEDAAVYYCQQYHRLPLSFGGGTKVEIK | 0.18 / 0.30 / 0.34 / -0.06 / 0.07 / 0.14 | 0.16 | 4/18 (2.75) |
| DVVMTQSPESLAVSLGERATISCKLQQSVQYESRNQNAVAWYQQKAGQPPKLLIYEASQREEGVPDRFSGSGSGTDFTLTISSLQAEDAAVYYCQQYHRLPLSFGGGTKVEIK | -0.20 / -0.41 / -0.36 / -0.55 / -0.40 / -0.27 | -0.37 | 0/18 |
| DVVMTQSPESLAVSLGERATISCKLMQSAWLESRNFNAVAWYQQKAGQPPKLLIYSASQRELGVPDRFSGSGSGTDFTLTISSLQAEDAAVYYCQQYHRLPLSFGGGTKVEIK | 0.73 / 0.83 / 0.94 / 0.59 / 0.73 / 0.97 | 0.80 | 2/18 (2.57) |
| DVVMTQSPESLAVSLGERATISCKLSCSEPYDSPMSNSVAWYQQKAGQPPKLLIYNASTRERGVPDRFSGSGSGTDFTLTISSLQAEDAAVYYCQQYHRLPLSFGGGTKVEIK | 0.19 / -0.02 / 0.01 / -0.18 / -0.05 / 0.08 | 0.00 | 0/18 |
| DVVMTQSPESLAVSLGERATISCKLSWSVGYESRNVNNVAWYQQKAGQPPKLLIYNASTRELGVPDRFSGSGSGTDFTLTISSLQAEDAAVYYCQQYHRLPLSFGGGTKVEIK | -0.07 / -0.17 / -0.32 / -0.37 / -0.38 / -0.02 | -0.22 | 1/18 (2.75) |
| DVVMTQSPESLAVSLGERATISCKISQSNLYESRNKNSIAWYQQKAGQPPKLLIYNANTREQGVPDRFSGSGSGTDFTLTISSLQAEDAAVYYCQQYHRLPLSFGGGTKVEIK | 0.52 / 0.62 / 0.50 / 0.44 / 0.72 / 0.30 | 0.52 | 1/18 (2.79) |
| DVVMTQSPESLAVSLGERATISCKVSWSVELQSRNWGQVAWYQQKAGQPPKLLIYSASTRELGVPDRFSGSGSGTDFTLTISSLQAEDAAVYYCQQYHRLPLSFGGGTKVEIK | 0.41 / 0.84 / 0.48 / 0.67 / 0.58 / 0.69 | 0.61 | 0/18 |
| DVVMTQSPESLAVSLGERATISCKLSQDDLYESRNCNNVAWYQQKAGQPPKLLIYQASTREQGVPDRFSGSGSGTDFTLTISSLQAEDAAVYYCQQYHRLPLSFGGGTKVEIK | 0.67 / 0.62 / 0.91 / 0.40 / 0.59 / 0.66 | 0.64 | 1/18 (2.13) |
| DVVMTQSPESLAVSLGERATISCKLSQSVGYQSRNKWSVAWYQQKAGQPPKLLIYNASTRESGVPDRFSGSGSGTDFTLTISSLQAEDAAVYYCQQYHRLPLSFGGGTKVEIK | 0.00 / 0.09 / -0.02 / -0.27 / -0.08 / 0.27 | 0.00 | 0/18 |

Repeated from above, the 3 best binders with a signal in all replicates:

| VL | log10 Kd, replicates | mean, log10 nM | empty controls |
|---|---|---|---|
| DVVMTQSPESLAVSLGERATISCKLQQSVQYESRNQNAVAWYQQKAGQPPKLLIYEASQREEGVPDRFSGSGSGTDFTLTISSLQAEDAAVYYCQQYHRLPLSFGGGTKVEIK | -0.20 / -0.41 / -0.36 / -0.55 / -0.40 / -0.27 | -0.37 | 0/18 |
| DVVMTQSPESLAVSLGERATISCKLSFSNGYEDRNKNSVAWYQQKAGQPPKLLIYSASQRLMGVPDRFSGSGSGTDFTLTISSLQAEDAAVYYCQQYHRLPLSFGGGTKVEIK | -0.08 / -0.24 / -0.30 / -0.37 / -0.37 / -0.51 | -0.31 | 1/18 (4.23) |
| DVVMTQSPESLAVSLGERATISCKLSWSVGYESRNVNNVAWYQQKAGQPPKLLIYNASTRELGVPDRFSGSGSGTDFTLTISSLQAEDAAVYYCQQYHRLPLSFGGGTKVEIK | -0.07 / -0.17 / -0.32 / -0.37 / -0.38 / -0.02 | -0.22 | 1/18 (2.75) |

Values reported by Li et al. 2023, doi:10.1038/s41467-023-39022-2 (FLAb copy).